In PubChem BioAssay (NCI):
Only a part is listed here, and it is no random draw. Some structures have more than one record in an assay (separate samples or runs), and their calls can disagree. Active and inactive are the calls of the source. Rule as the data show it: active = growth inhibition above about 70%; inactive = the rest.

Assay: NCI Yeast Anticancer Drug Screen. Data for the rad50EPP+ strain (AID 151);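 also: 0% = growth of vehicle-treated control cultures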
Settings: S. cerevisiae rad50 mutant strain, active compounds read high
Method: Growth inhibition of yeast strains with defined genetic alterations is measured as a screen for potential anti-cancer activity. Selected strains with alterations in DNA damage repair or cell cycle control were exposed to compounds and growth inhibition was measured relative to vehicle treated controls. The strain used in this assay is rad50EPP+

Row | Structure (SMILES) | growth inhibition (at 1.2 µM) | growth inhibition (at 3.7 µM) | growth inhibition (at 11.0 µM) | growth inhibition (at 33.0 µM) | growth inhibition (at 100.0 µM)
1 | COc1ccc(C[N+](C)(CCCl)CCCl)c([N+](=O)[O-])c1 | inactive: 62% | inactive: 66% | active: 81% | active: 88% | active: 90%
2 | COc1ccc([N+](=O)[O-])c(C[N+](C)(CCCl)CCCl)c1 | inactive: 11% | inactive: 37% | inactive: 64% | active: 94% | active: 96%
3 | ClCCN1CCCCC1CCl (stereo not given) | inactive: 0% | inactive: 5% | inactive: 30% | active: 82% | active: 96%
4 | Cn1cnc([N+](=O)[O-])c1C[N+](C)(CCCl)CCCl | inactive: 14% | inactive: 47% | active: 88% | active: 94% | active: 96%
5 | Cc1cccc(C[N+](C)(CCCl)CCCl)c1[N+](=O)[O-] | inactive: 29% | inactive: 59% | active: 93% | active: 97% | active: 97%
6 | Cc1ccc([N+](=O)[O-])c(C[N+](C)(CCCl)CCCl)c1 | inactive: 22% | inactive: 66% | active: 93% | active: 96% | active: 97%
